Patent publication US20240262904A1 (SHANGHAI MABGEEK BIOTECH, published 2024)
Several values for one entry are separate records, joined by “and”; a condition that tells them apart may be missing. Identical values can stand only once.

Key:
[1] = target: human TSLP antigen tagged with Flag (hTSLP-Flag) (human) (UniProt Q969D9); assay: SPR, Biacore T200, antibody captured on Protein A chip, hTSLP-Flag as analyte
[2] = target: human TSLP antigen tagged with Flag (hTSLP-Flag) (human) (UniProt Q969D9); assay: cell-based or functional assay
[3] = target: TSLP-flag-Biotin (human) (UniProt Q969D9); assay: competition ELISA by the method of Example 5: blocks TSLP-flag-Biotin binding to coated TSLPR-ECD-hFc

- Kd [1]: 13.1 pM
- koff [1]: 4.36e-05 s⁻¹
- kon [1]: 3.34e+06 M⁻¹ s⁻¹
- IC50 of inhibition of TSLP-dependent STAT5 activation (luciferase, IL-7R/TSLPR-BaF3-Luc (STAT5) cells, TSLP-flag stimulus) [2]: 0.958 µg/mL and 0.854 µg/mL
- IC50 [3]: 0.109 µg/mL
Substance: reference antibody Tezepelumab
